Data on 2 substances can be found in patent US11459499B2, “Amidoamine-based gemini surfactant containing ethoxylate units and a method for oil recovery” (King Fahd University of Petroleum and Minerals, priority 2018, dated 2022).

Holding throughout (type): physicochemical
The nature of data set [1]: Solubility and salt tolerance test in DW, SW and FW. As to conditions: 10 wt % solutions, 90° C. for 90 days. An excerpt:
The solubility was monitored during this 90-day period.
The solubility results are outlined in Table 2.

A short description of data set [2]: Foam stability (DFA 100 foam analyzer). As to conditions: surfactant concentration 0.1%, ambient temperature; compared to commercial surfactants. The protocol:
Foam analysis was performed using a DFA 100 foam analyzer (Kruss GmbH, Germany). A filter paper with a pore size of 16-40 μm was placed in the filter paper holder. The filter paper holder was then placed in a measuring column holder. A sample volume of 50 mL was placed carefully into the column with a syringe and a long needle. A measuring column with a prism was attached to the holder with the filter paper holder at the center. The LED and light sensors were 1 mm apart from the measuring column to ensure accurate foam height detection. A middle field of view set on the camera was used to get bubbles of intermediate sizes. Camera calibration was done with the dots imprinted at the top of the prism. The camera height was then set at 85 cm with the aid of the meter rule on the equipment to be close to the foam-liquid interface after calibration. Foam generation was done for 20 s using flowing air through the filter paper at a rate of 0.2 L/min.
The foamability and foam stability are two important properties to evaluate the performance of surfactants for foaming applications. All measurements were conducted at a fixed surfactant concentration (0.1%) at ambient temperature. The foamability of the synthesized surfactants was slightly smaller compared to the commercial surfactants. […]

Data set [3] can be described thus: Long-term heat stability by aging, then NMR and FT-IR. As to conditions: 10 wt % in SW and DW, 90° C. for 3 months. The protocol: The vials were left in the oven at 90° C. for 3 months. The samples were then taken out and subjected to NMR and FT-IR analysis after the aging.
The signals at δ 51.1 ppm indicated the existence of CH3 moieties connected with the quaternary ammonium head groups. Similarly, methylene moieties directly attached to the quaternary ammonium head groups were also observed at δ 62.1 ppm and δ 64.4 ppm. The overlapping peaks at δ70.0-71.5 ppm indicated the existence of ethylene oxide groups [—CH2—CH2—O—CH2—CH2—O—]. The peak at δ171.1 indicated the occurrence of the amide group. […] Signals at δ 3.22 ppm indicated the presence of CH3 moieties associated with the quaternary ammonium head groups. […] The broad peak at δ 7.99 ppm indicated the occurrence of the amide group. […] The amide I and amide II bands at 1654 cm^−1 and 1542 cm^−1, respectively were also observed. Moreover, the stretching mode of the ether moieties [—CH2—CH2—O—CH2—CH2—O—] was detected at 1110 cm^−1. Accordingly, proton and carbon NMR, as well as FT-IR spectra of the aged sample of 12-E2-12 matched well with the proposed structure of 12-E2-12.

“Also recorded” adds a separate entry of the source.

For “cationic poly(ethylene oxide) gemini surfactant [12-E1-12]”, the “solubility in FW and SW” value in data set [1] is “poorer solubility; also recorded: precipitate”.
Consider “cationic poly(ethylene oxide) gemini surfactant [12-E2-12]”, for which the foam stability result in data set [2] was “significantly higher; also recorded: superior foaming properties”. Also, the “long-term heat stability after aging” value in data set [3] is “good stability and no structure decomposition; also recorded: excellent long-term heat stability”. Besides, the “solubility in DW, SW and FW” value in data set [1] is on record as “stayed clear; also recorded: excellent solubility”.
